Tested on: 5-HT2A cys→lys mutant receptor
Details: mutated 5-HT2A cys→lys receptor; inverse agonism

SMILES | reduction of constitutively activated IP basal activity
CN(C)CCCN1c2ccccc2Sc2ccc(Cl)cc21 [chlorpromazine] | reduce the constitutively activated IP basal activity
Cc1nc2n(c(=O)c1CCN1CCC(c3noc4cc(F)ccc34)CC1)CCCC2 [risperidone] | reduce the constitutively activated IP basal activity

Reference: US6255089A (dated 2001)
